The record followed here is ChEMBL document CHEMBL4334470, “Small molecule modulators targeting protein kinase CK1 and CK2” (Eur J Med Chem, 2019).

Protein sequences, listed by entry. Tags and fused reporters are not part of them.
UniProt P68400, whole entry: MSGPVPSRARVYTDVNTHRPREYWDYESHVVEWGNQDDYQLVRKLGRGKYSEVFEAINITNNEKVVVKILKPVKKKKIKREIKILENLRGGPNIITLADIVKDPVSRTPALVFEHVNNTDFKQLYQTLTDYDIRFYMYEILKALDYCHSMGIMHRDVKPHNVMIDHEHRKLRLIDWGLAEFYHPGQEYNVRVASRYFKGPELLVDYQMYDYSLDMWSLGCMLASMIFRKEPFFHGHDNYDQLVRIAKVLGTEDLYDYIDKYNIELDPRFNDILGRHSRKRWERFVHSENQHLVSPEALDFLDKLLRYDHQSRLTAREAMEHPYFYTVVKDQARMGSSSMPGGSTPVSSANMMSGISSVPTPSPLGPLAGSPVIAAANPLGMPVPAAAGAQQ

Test [1] concerns the target T1, Casein kinase II subunit alpha (Homo sapiens, UniProt P68400). Put plainly: Inhibition of CK2alpha in human PLC1 cells using (Arg)3(Glu)3Thr(Glu)3 as substrate after 24 hrs in presence of [32P]gammaGTP. The class given is cell-based.
For test [2], the target named is T1, Casein kinase II subunit alpha. Put plainly: Inhibition of CK2alpha (unknown origin).

The Ki is the dissociation constant of the complex between target and ligand, obtained from inhibition or displacement.

With `CN(C)c1nc2c(Br)c(Br)c(Br)c(Br)c2[nH]1`, in test [1], the Ki is 4500 nM.

Molecule `Cc1cc(O)c2c(c1)C(=O)c1cc(O)cc(O)c1C2=O` [EMODIN] gave a Ki in test [2] of 1500 nM.
